Biological target: T1, Dihydrofolate reductase (Homo sapiens) (UniProt P00374)
T1 sequence (whole entry): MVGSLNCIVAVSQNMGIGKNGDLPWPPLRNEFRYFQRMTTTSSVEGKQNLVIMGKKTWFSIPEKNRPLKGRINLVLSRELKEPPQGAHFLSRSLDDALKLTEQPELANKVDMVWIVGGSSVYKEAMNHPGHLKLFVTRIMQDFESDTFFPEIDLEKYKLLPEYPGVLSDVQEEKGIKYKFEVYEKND
Assay: Binding affinity to DHFR assessed as change in UV-Vis spectra at 10 uM in HEPES buffer at pH 7.2 by UV-Visible spectroscopy

With COc1cc(/C=C2\C(=O)Nc3ccccc32)cc(OC)c1O the K was 1.3 ×10⁷ /M.

— ChEMBL document CHEMBL2163263, “Mechanism inspired development of rationally designed dihydrofolate reductase inhibitors as anticancer agents” (J Med Chem, 2012)
